Assay results published in patent publication EP4831176A1, “BICYCLIC FUSED HETEROAROMATIC RING DERIVATIVE, AND PHARMACEUTICAL COMPOSITION AND USE THEREOF” (dated 2026).

The chains behind the UniProt entries cited, without tags or fusion partners.
UniProt O75530, whole entry: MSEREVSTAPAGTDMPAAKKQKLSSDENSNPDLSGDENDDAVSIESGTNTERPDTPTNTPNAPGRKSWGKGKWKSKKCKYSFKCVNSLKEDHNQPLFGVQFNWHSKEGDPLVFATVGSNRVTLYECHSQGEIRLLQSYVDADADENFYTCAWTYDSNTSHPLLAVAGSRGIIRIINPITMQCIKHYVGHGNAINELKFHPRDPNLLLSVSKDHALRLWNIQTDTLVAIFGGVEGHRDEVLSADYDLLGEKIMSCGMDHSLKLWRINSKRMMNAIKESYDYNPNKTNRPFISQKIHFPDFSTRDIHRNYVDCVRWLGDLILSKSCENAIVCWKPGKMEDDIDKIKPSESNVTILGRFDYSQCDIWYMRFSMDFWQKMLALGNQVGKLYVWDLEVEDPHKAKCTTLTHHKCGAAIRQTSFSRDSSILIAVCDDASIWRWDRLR

What was measured:
Pfeiffer cells = assay: Proliferation inhibition of Pfeiffer tumor cells, Cell Titer-Glo; conditions: read-out: CTG IC50, 144 hours incubation
From the text: In this experiment, Cell Titer-Glo reagent was used to quantitatively analyze the proliferation activity of Pfeiffer cells to detect the inhibitory ability of the compounds on tumor cell proliferation. The specific steps were as follows: • 1. Pfeiffer cells were purchased from Nanjing Cobioer (purchased from ATCC, Catalog No. #CRL2632), subcultured and maintained in logarithmic growth state using RPMI-1640 complete medium (containing 10% v/v fetal bovine serum) according to the supplier's recommended conditions. […] Before cell seeding, cells were collected in a centrifuge tube, centrifuged at 250 rcf for 3 minutes, and the culture medium was discarded. The cells were resuspended in fresh complete medium, and 20 µL of the cell suspension was taken to calculate the cell concentration using a Countstar cell counter. After adjusting the density, cells were seeded into a 384-well plate at 2,000 cells/45 µL and pre-incubated in a 37°C, 5% CO2 incubator for 4 hours. • 3. The negative and positive control groups were treated with 5 µL of control solution (non-complete medium containing 1% v/v DMSO). Compound gradient dilutions were prepared using non-complete medium, and 5 µL of the dilutions were added to the corresponding culture wells. The final concentration of DMSO in the test was 0.1% v/v. Subsequently, the plate was incubated in a 37°C, 5% CO2 incubator for 144 hours. • 4. 40 µL of Cell Titer-Glo reagent was added directly to the cell culture, and the plate was incubated at room temperature in the dark for 30 minutes. The luminescence value was then read on a plate reader, and the results were used to analyze the cell proliferation ratio and compound activity. • 5. The signal value of the negative control group was set as Bottom, and the signal value of the positive control group was set as Top. The compound concentration value (logarithm) was the X-axis, and the luminescence reading at the corresponding concentration was the Y-axis, with HillSlope as the slope factor. A four-parameter logistic model (4PL logistic model) was used for fitting, and the calculation method was as follows:Y = Bottom + (Top - Bottom) / (1 + 10^((Log IC50 - X) × HillSlope))
After fitting, the IC50 value of the compound was calculated, and the proliferation inhibitory activity of the compound was compared based on the IC50 value.

EED protein = EED protein (Homo sapiens, UniProt O75530); assay: EED protein degradation in Karpas-422 cells, In-cell western (ICW); conditions: 18 hours incubation
From the text: In this experiment, In-cell western (ICW) method was used to quantitatively analyze the EED protein expression level in Karpas-422 cells to detect the degradation activity of the compounds on the target protein. The specific steps were as follows: • 1. Karpas-422 cells were purchased from Nanjing Cobioer (Catalog No. CBP60629), subcultured and maintained in logarithmic growth state using RPMI-1640 complete medium (containing 10% v/v fetal bovine serum) according to the supplier's recommended conditions. […] One day before cell seeding, a 384-well plate was coated with 30 µL of coating buffer (phosphate buffered saline containing 30 µg/mL poly-D-lysine) at room temperature for 2 hours. The coating solution was then discarded, and the plate was washed once with 90 µL of phosphate buffered saline, which was then discarded. The plate was allowed to air dry naturally in a clean bench, wrapped around the edges with Parafilm to prevent moisture, and stored in a 4°C refrigerator until use. • 3. Before cell seeding, cells were collected in a centrifuge tube, centrifuged at 250 rcf for 3 minutes, and the culture medium was discarded. The cells were resuspended in fresh complete medium, and 20 µL of the cell suspension was taken to calculate the cell concentration using a Countstar cell counter. After adjusting the density, cells were seeded into the prepared coated plate at 15,000 cells/45 µL and pre-incubated in a 37°C, 5% CO2 incubator for 4 hours. • 4. The negative and positive control groups were treated with 5 µL of control solution (serum-free medium containing 1% v/v DMSO). Compound gradient dilutions were prepared using the control solution, and 5 µL of the dilutions were added to the corresponding culture wells. The final concentration of DMSO in the test was 0.1% v/v. Subsequently, the plate was incubated in a 37°C, 5% CO2 incubator for 18 hours. • 5. The culture plate was removed, and cells were fixed by directly adding 10 µL of fixative solution (phosphate buffered saline containing 3% v/v glutaraldehyde) to the cells and incubating at room temperature for 30 minutes. The liquid was discarded. Subsequently, cells were treated with 30 µL of permeabilization staining solution (phosphate buffered saline containing 0.1% v/v Triton X-100 and 20 µg/mL Hoechst 33342) at room temperature for 30 minutes. The permeabilization solution was discarded, and the fluorescence value (excitation at 360 nm, emission at 460 nm) was read on a microplate reader. • 6. 50 µL of repair solution (50 mM citric acid buffer) was added to all wells, and the plate was incubated at 70°C for 2 hours on a constant temperature incubation shaker. The microplate was then removed, equilibrated to room temperature, and the liquid was discarded. • 7. A sufficient amount of antibody dilution buffer (Tris Buffered Saline-Tween solution containing 1% w/v bovine serum albumin) was prepared and stored in a 4°C refrigerator until use. • 8. Primary antibody dilution (EED antibody diluted 1:1000 with antibody dilution buffer) was prepared. 30 µL of antibody dilution buffer without antibody was added to the negative control group. 30 µL of the primary antibody dilution was added to the cells in the other groups, and the plate was incubated overnight at 4°C. • 9. The primary antibody dilution was discarded. The plate was washed 3 times with 90 µL of Tris Buffered Saline-Tween solution, and the wash solution was discarded. Secondary antibody dilution (HRP-linked antibody diluted 1:500 with antibody dilution buffer) was prepared, and 30 µL was added to the cells. The plate was incubated at room temperature for 2 hours. • 10. The secondary antibody dilution was discarded. The plate was washed 3 times with 90 µL of Tris Buffered Saline-Tween solution, and the wash solution was discarded. 30 µL of TMB substrate solution was added, and the plate was incubated at room temperature in the dark for 15 minutes. Then, 30 µL of stop solution (2 M sulfuric acid) was added to terminate the reaction. […]

IC50 (Pfeiffer cells)	Dmax (EED protein)	Compound
1400 pM	57%	Cn1nc(C2CCC(=O)NC2=O)c2ccc(N3CC4(CC(CN5CCC(n6cc(-c7cnc(NCc8c(F)ccc9c8CCO9)n8cnc(Cl)c78)cn6)CC5)C4)C3)cc21 (stereo not shown)
< 100 pM	73%	Cn1nc(C2CCC(=O)NC2=O)c2ccc(N3CCC(CN4CCC(n5cc(-c6cnc(NCc7c(F)ccc8c7CCO8)n7cnc(Cl)c67)cn5)CC4)CC3)cc21 (stereo not shown)
2000 pM	62%	Cn1nc(C2CCC(=O)NC2=O)c2ccc(N3CCC(CN4CCC(n5cc(-c6cnc(NCc7c(F)ccc8c7CCO8)n7cnc(Cl)c67)c(F)n5)CC4)CC3)cc21 (stereo not shown)
500 pM	64%	Cn1nc(C2CCC(=O)NC2=O)c2cc(F)c(N3CCC(CN4CCC(n5cc(-c6cnc(NCc7c(F)ccc8c7CCO8)n7cnc(Cl)c67)cn5)CC4)CC3)cc21 (stereo not shown)
4000 pM	74%	Cn1nc(C2CCC(=O)NC2=O)c2ccc(N3CCC(CN4CCC(c5ccc(-c6cnc(NCc7c(F)ccc8c7CCO8)n7cnc(F)c67)cc5)CC4)CC3)cc21 (stereo not shown)
900 pM	64%	Cn1nc(C2CCC(=O)NC2=O)c2ccc(N3CCC(CN4CCC(c5ccc(-c6cnc(NCc7c(F)ccc8c7CCO8)n7cnc(Cl)c67)nn5)CC4)CC3)cc21 (stereo not shown)
400 pM	65%	Cn1nc(C2CCC(=O)NC2=O)c2ccc(N3CCC(CN4CCC(c5ncc(-c6cnc(NCc7c(F)ccc8c7CCO8)n7cnc(Cl)c67)cn5)CC4)CC3)cc21 (stereo not shown)
300 pM	68%	Cc1nc(C2CCN(CC3CN(c4ccc5c(C6CCC(=O)NC6=O)nn(C)c5c4)C3)CC2)ccc1-c1cnc(NCc2c(F)ccc3c2CCO3)n2cnc(Cl)c12 (stereo not shown)
200 pM	68%	O=C1CCC(N2Cc3cc(N4CCC(CN5CCC(n6cc(-c7cnc(NCc8c(F)ccc9c8CCO9)n8cnc(Cl)c78)cn6)CC5)CC4)ccc3C2=O)C(=O)N1 (stereo not shown)
1500 pM	61%	Cn1nc(C2CCC(=O)NC2=O)c2ccc(N3CCC(CN4CCC(n5cc(-c6cnc(NCc7c(F)ccc8c7CCO8)n7cnnc67)cn5)CC4)CC3)cc21 (stereo not shown)
1000 pM	67%	Cn1nc(C2CCC(=O)NC2=O)c2ccc(N3CCC(CN4CCC(c5cnc(-c6cnc(NCc7c(F)ccc8c7CCO8)n7cnc(Cl)c67)cn5)CC4)CC3)cc21 (stereo not shown)
400 pM	67%	Cn1nc(C2CCC(=O)NC2=O)c2ccc(N3CCC(CN4CCC(n5cc(-c6cnc(NCc7c(F)ccc8c7CCO8)n7cnc(Cl)c67)cn5)CC4)CC3)nc21 (stereo not shown)
900 pM	68%	Cn1nc(C2CCC(=O)NC2=O)c2ccc(N3CCC(CN4CCC(n5cc(-c6cnc(NCc7c(F)ccc8c7CCO8)n7cnc(F)c67)cn5)CC4)CC3)cc21 (stereo not shown)
9000 pM	55%	Cn1nc(C2CCC(=O)NC2=O)c2ccc(N3CCC(CN4CCC(c5ccc(-c6cnc(NCc7c(F)ccc8c7CCO8)n7cnc(Cl)c67)cc5)CC4)CC3)cc21 (stereo not shown)
1000 pM	59%	Cn1nc(C2CCC(=O)NC2=O)c2ccc(N3CCC(CN4CCC(n5cc(-c6cnc(NCc7c(F)ccc8c7CCO8)n7cc(C#N)nc67)cn5)CC4)CC3)cc21 (stereo not shown)
< 30 pM	65%	O=C1CCC(Nc2ccc(N3CCN(C4CCN(Cc5ncc(-c6cnc(NCc7c(F)ccc8c7CCO8)n7cnc(Cl)c67)cn5)CC4(F)F)CC3)c(F)c2)C(=O)N1 (stereo not shown)
700 pM	71%	Cn1nc(C2CCC(=O)NC2=O)c2ccc(N3CCC(CN4CCC(c5ccc(-c6cnc(NCc7c(F)ccc8c7CCO8)n7cnc(Cl)c67)nc5)CC4)CC3)cc21 (stereo not shown)
< 30 pM	62%	Cn1nc(C2CCC(=O)NC2=O)c2ccc(N3CCC(CN4CCC(n5cnc(-c6cnc(NCc7c(F)ccc8c7CCO8)n7cnc(Cl)c67)n5)CC4)CC3)cc21 (stereo not shown)
700 pM	72%	Cc1nc(C2CCN(CC3CCN(c4ccc5c(C6CCC(=O)NC6=O)nn(C)c5c4)CC3)CC2)ccc1-c1cnc(NCc2c(F)ccc3c2CCO3)n2cnnc12 (stereo not shown)
200 pM	74%	Cn1nc(C2CCC(=O)NC2=O)c2ccc(N3CCC(CN4CCC(c5ccc(-c6cnc(NCc7c(F)ccc8c7CCO8)n7cnnc67)cc5)CC4)CC3)cc21 (stereo not shown)
